{
  "source": "patent US10927155B2",
  "about": "“Dual inhibitory action peptidomimetic inhibitor for IL-33 and IL-1beta” (GEORGE MASON UNIVERSITY, priority 2015, dated 2021)",
  "test_system": "IL-1β/IL-1R1 dependent signaling",
  "test": "HEK-Blue IL-33/IL-1β reporter cells (SEAP) stimulated with IL-1β",
  "type": "cell-based",
  "conditions": "cytokine used instead of IL-1 as stimulus; FIG. 15",
  "excerpt": "HEK-Blue™ IL-33/IL-1β cells were purchased from InvivoGen. These cells were transfected with a reporter gene, secreted embryonic alkaline phosphatase (SEAP), under the control of the IFN-β minimal promoter fused to five NF-κB and five AP-1 binding sites. In the presence of bioactive IL1β and/or IL33, HEK-Blue cells activate the NF-κB and AP-1 pathways triggering the production of SEAP. SEAP activity in cell supernatant is quantified using a colorimetric enzyme assay (QUANTI-Blue™, InvivoGen).\nHEK Blue IL-33/IL-1β Reporter Cells. HEK-Blue™ IL-33/IL-1β Cells were purchased from InvivoGen. These cells were generated by transfection with a reporter gene, secreted embryonic alkaline phosphatase (SEAP), under the control of the IFN-β minimal promoter fused to five NF-κB and five AP-1 binding sites. In the presence of bioactive IL-1β and/or IL-33, HEK-Blue cells activated the NF-κB and AP-1 pathways triggering the production of SEAP. SEAP activity in cell supernatant was quantified using a colorimetric enzyme assay (QUANTI-Blue™, InvivoGen). HEK Blue cells were grown in DMEM, 4.5 g/l glucose, 2 mM L-Glutamine, 10% (v/v) heat-inactivated fetal bovine serum (30 min at 56° C.). After two passages, cells were exposed to selective medium (DMEM, 4.5 g/l glucose, 2 mM L-Glutamine, 10% heat-inactivated FBS (v/v) with of blasticidin (30 μg/ml), hygromycin B ([…]), and Zeocin™ (100 mg/ml)). […]",
  "data": [
    {"substance": "IL-2: cytokine specificity control [reference compound]", "values": [
      {"measurement": "signaling activity of cytokine specificity controls", "value": "no significant signaling activity"}
    ]}
  ]
}
